Experiments:
[1] = Plasma protein binding rate, mouse; format: in vitro ADME
[2] = system: Jeko-1 cell; test: Jeko-1 cell test (IgM-stimulated, phosphorylated AKT readout); conditions: read-out: Jeko-1 Cell IC50; 2 h compound, IgM stimulation 10 min, phospho-AKT
[3] = Plasma protein binding rate, human; format: in vitro ADME
[4] = target: PI3K gamma (Homo sapiens, UniProt P48736); test: In vitro enzyme activity assay (ADP-Glo lipid kinase), PI3K gamma; conditions: read-out: PI3Kγ IC50; ATP 25 μM, PIP2:3PS 50 μM, 120 min
[5] = In vivo DMPK study, single dose in female Balb/c mice

Sequences of proteins named here, by UniProt entry; tags and fusion partners are left off.
UniProt P48736, whole entry: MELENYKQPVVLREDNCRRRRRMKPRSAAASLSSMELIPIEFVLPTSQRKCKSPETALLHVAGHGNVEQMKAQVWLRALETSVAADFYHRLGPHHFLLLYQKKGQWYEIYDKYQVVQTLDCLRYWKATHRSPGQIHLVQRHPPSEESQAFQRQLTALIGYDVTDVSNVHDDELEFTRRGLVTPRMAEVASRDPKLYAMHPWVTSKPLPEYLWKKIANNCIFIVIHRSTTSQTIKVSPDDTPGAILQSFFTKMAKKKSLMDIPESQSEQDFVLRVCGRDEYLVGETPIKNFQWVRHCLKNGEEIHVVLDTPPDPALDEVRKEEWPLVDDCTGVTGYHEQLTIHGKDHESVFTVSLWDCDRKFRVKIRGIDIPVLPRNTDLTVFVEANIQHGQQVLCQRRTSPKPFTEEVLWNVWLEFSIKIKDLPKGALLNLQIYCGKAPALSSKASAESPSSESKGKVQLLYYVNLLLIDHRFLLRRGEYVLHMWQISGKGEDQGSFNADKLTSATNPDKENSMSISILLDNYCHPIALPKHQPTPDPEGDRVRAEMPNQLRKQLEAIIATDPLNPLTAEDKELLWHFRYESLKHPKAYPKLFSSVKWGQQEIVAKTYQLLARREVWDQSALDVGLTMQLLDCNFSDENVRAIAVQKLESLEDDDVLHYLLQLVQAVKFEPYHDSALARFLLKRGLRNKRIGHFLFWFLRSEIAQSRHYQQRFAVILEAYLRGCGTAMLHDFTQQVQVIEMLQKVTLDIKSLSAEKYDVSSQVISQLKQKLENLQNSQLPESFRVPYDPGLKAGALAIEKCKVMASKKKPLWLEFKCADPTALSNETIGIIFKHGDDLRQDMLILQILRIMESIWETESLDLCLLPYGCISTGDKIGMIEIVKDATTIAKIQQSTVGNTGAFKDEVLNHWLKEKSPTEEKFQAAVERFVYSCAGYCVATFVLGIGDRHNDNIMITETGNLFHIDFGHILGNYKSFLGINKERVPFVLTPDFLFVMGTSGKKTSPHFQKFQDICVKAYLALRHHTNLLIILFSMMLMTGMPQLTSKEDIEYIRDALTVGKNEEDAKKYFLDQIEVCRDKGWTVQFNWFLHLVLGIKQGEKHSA

PPB % (plasma protein binding rate) [1]: 92.3%
IC50 [2]: 273 nM
PPB % (plasma protein binding rate) [3]: 86.9%,
IC50 [4]: 427 nM
Cmax ([5]; oral 3 mg/kg, female Balb/c mice): 2860 nM
Oral DNAUC (dose-normalized area under curve) ([5]; oral, mice): 4968 nM · h/mpk
SMILES: COc1ccc(-c2nn(C(C)c3nc4ccc(F)cn4c(=O)c3-c3cccc(F)c3)c3ncnc(N)c23)cc1F (stereo not drawn) [WX009]
